For data set [1], the system named is healthy rats. The conditions noted are these: rat, in vivo.
Data set [2] concerns healthy rats. The conditions noted are these: rat, in vivo. The source holds these as a separate data set.

These results are taken from article PMC5997768 (2018).

SMILES strings stand for the structures.

Regarding `CN1CC[C@]23c4c5ccc(O)c4O[C@H]2[C@@H](O)C=C[C@H]3[C@H]1C5` [Morphine], the “Decreased locomotor activity at later time points” value in the data set on healthy rats [1] is recorded as “not seen”. Moreover, the “Locomotor activity at 5 min after injection vs vehicle” value in the data set on healthy rats [1] (sc) is listed as “significantly decreased locomotor activity”. In the data set on healthy rats [2], the Heart rate result was “impaired” and the Respiratory rate result was “transiently elevated”.
